These results are taken from PubChem BioAssay AID602363 (Broad Institute, 2012).

About 450 (0.13%) of roughly 350,000 compounds were called active. Many of the other results were omitted from the sample, so actives are more common in it than they were. A number with no mark means an inactive call.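 The calls were made as follows: active = replicate mean at a twofold rise or more (about +100% in these data); inactive = the rest.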

The assay in a line: modulators of yeast start codon fidelity, primary screen, whole organism, S. cerevisiae, single point, plate reader (AID 602363). As to conditions: S. cerevisiae UUG-firefly luciferase reporter, luminescence/redox ratio; at 18.7 µM; stronger effect = higher value. On the technique in general: Reporter assays use an easily measured gene product as a stand-in for the process of interest.
Take `COc1cccc(S(=O)(=O)N[C@@H]2CC[C@@H](CCNC(=O)Cc3ccncc3)O[C@H]2CO)c1`: the activity score was 0.154%. Take `C[C@@H]1CN([C@@H](C)CO)C(=O)c2cc(-c3cccnc3)cnc2O[C@@H]1CN(C)C(=O)C1CC1`: the activity score is -5.34%. For `O=C(C[C@@H]1C[C@@H]2c3cc(NC(=O)Nc4ccc(C(F)(F)F)cc4)ccc3O[C@@H]2[C@@H](CO)O1)NCCc1ccccc1` the value was -18.2%; for `C[C@@H]1CCCCO[C@H](CN(C)S(=O)(=O)c2cccs2)[C@@H](C)CN([C@@H](C)CO)C(=O)c2cc(NC(=O)NC3CCCCC3)ccc2O1`, -8.53%. The value for `CO[C@@H]1CN(C)C(=O)c2cc(NC(=O)C3CC3)ccc2OC[C@@H](C)N(C(=O)c2ccncc2)C[C@H]1C` was 0.045%; that for `CN(C)C(=O)c1ccc(-c2ccc([C@@H]3[C@@H](CO)N4CCCCN(Cc5cncnc5)C[C@@H]34)cc2)cc1` was -3.82%; that for `O=C(c1cccnc1)N1C[C@H]2[C@@H](c3ccccc31)[C@H](CO)N2C(=O)C1CCCCC1` was -1.65%. For `O=C(C1CCC1)N1C[C@@H]2[C@H](c3ccccc31)[C@H](CO)N2C(=O)c1ccccc1`, the activity score was 53.9%.

As to `O=C(c1ccccc1F)N1C[C@@H]2[C@H](c3ccccc31)[C@H](CO)N2C(=O)C1CCCC1`, the activity score was 6.27%. The value for `O=C(c1cccnc1)N1C[C@H]2[C@@H](c3ccccc31)[C@H](CO)N2C(=O)C1CC1` was 101% (active). The value for `O=C(C1CCC1)N1C[C@H]2[C@@H](c3ccccc31)[C@@H](CO)N2C(=O)c1ccccc1F` was 115% (active); that for `O=C(c1cccnc1)N1C[C@@H]2[C@H](c3ccccc31)[C@@H](CO)N2C(=O)Nc1ccc(F)cc1` was 52.2%. For `COc1ccccc1-c1cn(CC[C@H]2CC[C@H](NC(=O)C3CCOCC3)[C@@H](CO)O2)nn1` the value was -2.48%; for `C[C@@H]1CN([C@H](C)CO)S(=O)(=O)c2ccc(-c3ccccc3)cc2O[C@@H]1CN(C)C(=O)C1CC1`, 1.27%; for `Cn1cnc(CCNC(=O)C[C@H]2CC[C@H]3[C@@H](COC[C@H](O)CN3C(=O)C3CCCC3)O2)c1`, 2.13%. For the molecule `C[C@@H]1CCCCO[C@@H](CN(C)C(=O)Nc2ccc(F)cc2)[C@H](C)CN([C@@H](C)CO)C(=O)c2cc(NS(=O)(=O)c3ccccc3)ccc2O1`, the activity score is -2.99%.

For `CCCC(=O)Nc1ccc2c(c1)C(=O)N(C)[C@H]1CC[C@@H](CC(=O)NCc3ccccc3)O[C@@H]1CO2`, the activity score is 6.07%. For `COc1cccc(S(=O)(=O)N2C[C@@H](O)COC[C@@H]3O[C@H](CC(=O)N4CCN(C)CC4)CC[C@H]32)c1` the value was 25.3%. Consider `O=C(C1CCC1)N1C[C@H]2[C@@H](c3ccccc31)[C@H](CO)N2C(=O)Nc1cccc(F)c1`, for which the activity score was 4.33%. For `CN1c2ccc(C#Cc3cccnc3)cc2[C@H]2[C@H](CCN2S(=O)(=O)c2ccccc2)[C@@H]1CO` the value was -20.3%. The value for `C[C@H]1CN([C@@H](C)CO)C(=O)c2cc(NC(=O)Cn3cnnn3)ccc2O[C@@H]1CN(C)CC1CCCCC1` was -6.95%; that for `C[C@H]1CN([C@@H](C)CO)C(=O)c2cc(Br)cnc2O[C@@H]1CN(C)C(=O)c1ccccc1F` was 1.14%; that for `C[C@@H]1CCCCO[C@H](CN(C)Cc2ccc3c(c2)OCO3)[C@H](C)CN([C@@H](C)CO)C(=O)c2cc(NS(=O)(=O)c3cn(C)cn3)ccc2O1` was 0.464%.

Regarding `C[C@H]1CCCCO[C@H](CN(C)CC2CCCCC2)[C@@H](C)CN([C@@H](C)CO)C(=O)c2cc(NS(=O)(=O)c3ccc(Cl)cc3)ccc2O1`, the activity score is 19.2%. For `Cc1noc(C)c1S(=O)(=O)Nc1ccc2c(c1)C(=O)N([C@@H](C)CO)C[C@@H](C)[C@@H](CN(C)S(=O)(=O)c1ccccc1)O2` the value was -1.76%.

On to `C[C@H]1CN([C@@H](C)CO)C(=O)c2cccc(NC(=O)C3CC3)c2O[C@@H]1CN(C)S(=O)(=O)c1ccc(F)cc1`, for which the activity score was -5.43%. In the case of `CN(C)CC(=O)Nc1ccc2c(c1)[C@@H]1C[C@H](CC(=O)NCc3ccc(Cl)cc3)O[C@@H](CO)[C@@H]1O2`, the activity score was 26.4%. Take `COCC(=O)Nc1ccc2c(c1)C(=O)N(C)[C@@H]1CC[C@H](CC(=O)NCC3CCCCC3)O[C@H]1CO2`: the activity score is -1.78%.

Consider `CNC(=O)C[C@@H]1CC[C@@H]2[C@@H](COc3ccc(NC(=O)Cc4cccs4)cc3C(=O)N2C)O1`, for which the activity score was 3.32%. Consider `CC(C)C#Cc1ccc2c(c1)O[C@@H](CN(C)C(=O)C1CC1)[C@H](C)CN([C@H](C)CO)S2(=O)=O`, for which the activity score is 1.46%. The value for `O=S(=O)(Cc1ccccc1)N1CCCCN2[C@H](CO)[C@@H](c3ccc(-c4cncnc4)cc3)[C@H]2C1` was -10.2%. `COc1ccc(NC(=O)N(C)C[C@@H]2OCCCC[C@H](C)Oc3ccc(NS(=O)(=O)c4cccs4)cc3C(=O)N([C@@H](C)CO)C[C@@H]2C)cc1`: the activity score was -14.6%. The value for `C[C@H]1CN([C@@H](C)CO)C(=O)c2cccc(NS(C)(=O)=O)c2O[C@@H]1CN(C)C(=O)Nc1ccc(F)cc1` was -0.709%. The value for `COCC(=O)N(C)C[C@H]1Oc2ncc(-c3cccc(OC)c3)cc2C(=O)N([C@H](C)CO)C[C@H]1C` was 11.3%. For `CO[C@H]1CN(C)C(=O)c2ccc(NS(=O)(=O)c3cn(C)cn3)cc2OC[C@@H](C)N(C)C[C@@H]1C`, the activity score is -8.25%.

With `C[C@@H]1CN([C@H](C)CO)C(=O)Cc2cc(NC(=O)CCCN(C)C)ccc2O[C@H]1CN(C)S(=O)(=O)c1cccs1`, the activity score is 4.48%. The value for `CCC(=O)N1[C@@H](CO)[C@@H]2c3ccccc3N(C(=O)c3cnccn3)C[C@@H]21` was -8.18%; that for `CC(C)NC(=O)N[C@@H]1CC[C@@H](CCNS(=O)(=O)Cc2ccccc2)O[C@@H]1CO` was -4.26%; that for `O=C(N[C@H]1CC[C@@H](CCNS(=O)(=O)Cc2ccccc2)O[C@H]1CO)c1ccccc1F` was 170% (active).

Regarding `O=C(N[C@@H]1CC[C@@H](CCNS(=O)(=O)Cc2ccccc2)O[C@@H]1CO)c1ccccc1F`, the activity score was -4.32%. For `C[C@@H]1CCCCO[C@H](CN(C)C(=O)Cc2ccccc2)[C@@H](C)CN([C@@H](C)CO)C(=O)c2cc(NC(=O)c3ccccc3)ccc2O1` the value was 0.371%; for `COCCCNC(=O)[C@@]1(C)c2ccccc2C(=O)N(Cc2ccc(OC(F)(F)F)cc2)[C@H]1c1ccc(CO)cc1`, 2.89%.

`COc1ccc(CCN2C(=O)[C@@]3(Cc4ccccc42)c2ccccc2C(=O)N(Cc2ccccc2C(F)(F)F)[C@H]3c2ccc(CO)cc2)cc1`: the activity score is 153% (active). As to `CC(C)N1C(=O)[C@@]2(Cc3ccccc31)c1ccccc1C(=O)N(C1CCCCC1)[C@H]2c1ccc(CO)cc1`, the activity score was 69%. For `COc1ccccc1NC(=O)N(C)C[C@@H]1Oc2ncc(Br)cc2C(=O)N([C@@H](C)CO)C[C@@H]1C`, the activity score was 19.9%.

Consider `CCOC(=O)C(=CNc1cccc(C)n1)C(=O)OCC`, for which the activity score is -12%. With `CCOC(=O)C(=Cc1ccccc1)C(=O)c1ccccc1`, the activity score was -13%.

On to `CCOC(=O)C(=Cc1ccccc1OC)C(=O)OCC`, for which the activity score was 448% (active). For `COc1ccc(-c2cnc3c(c2)C(=O)N([C@@H](C)CO)C[C@@H](C)[C@H](CN(C)C)O3)cc1` the value was -4.93%; for `N#Cc1cccc(-c2ccc3c(c2)[C@H]2[C@H](CCN2S(=O)(=O)c2ccc(F)cc2)[C@@H](CO)N3)c1`, -15.3%; for `C[C@H]1CN([C@@H](C)CO)C(=O)Cc2cc(NC(=O)Nc3ccccc3)ccc2O[C@H]1CN(C)S(=O)(=O)c1cn(C)cn1`, 2.53%. As to `C[C@H](CO)N1C[C@H](C)[C@@H](CN(C)Cc2cccnc2)Oc2cc(C#CC3CC3)ccc2S1(=O)=O`, the activity score is 8.44%. The value for `COc1cccc(C(=O)Nc2ccc3c(c2)OC[C@H](C)N(C(C)=O)C[C@@H](C)[C@@H](OC)CN(C)C3=O)c1` was 43.4%; that for `C/C=C/c1ccc2c(c1)O[C@@H](CN(C)C(=O)Cc1ccccc1)[C@H](C)CN([C@@H](C)CO)S2(=O)=O` was 58.8%; that for `CC(C)NC(=O)N(C)C[C@H]1Oc2ccc(NC(=O)CCC(F)(F)F)cc2CC(=O)N([C@@H](C)CO)C[C@@H]1C` was -4.49%. The value for `CCCC(=O)Nc1ccc2c(c1)C(=O)N(C)[C@H]1CC[C@@H](CC(=O)NCC(F)(F)F)O[C@@H]1CO2` was -2.34%; that for `CO[C@@H]1CN(C)C(=O)c2cc(NC(=O)C3CCCC3)ccc2OC[C@H](C)N(C)C[C@@H]1C` was 3.06%. As for `Cc1noc(C)c1NC(=O)Nc1ccc2c(c1)CC(=O)N([C@@H](C)CO)C[C@@H](C)[C@@H](CN(C)C(=O)NC(C)C)O2`, the activity score is -0.961%. For `C[C@H](O)C#Cc1cnc2c(c1)C(=O)N([C@H](C)CO)C[C@H](C)[C@H](CN(C)C(=O)c1ccc(F)cc1)O2` the value was 9.52%; for `CC(C)NC(=O)N(C)C[C@@H]1Oc2c(cccc2N(C)C)C(=O)N([C@@H](C)CO)C[C@H]1C`, -11.2%. The value for `C[C@H]1CN([C@@H](C)CO)C(=O)c2cc(NS(=O)(=O)c3cccs3)ccc2O[C@@H]1CN(C)C(=O)Nc1ccccc1` was -9.65%; that for `C[C@@H]1CN([C@@H](C)CO)S(=O)(=O)c2ccc(C#CCN(C)C)cc2O[C@@H]1CN(C)CC1CC1` was 33.3%. For `C[C@@H]1CCCCO[C@@H](CN(C)Cc2ccc(C(=O)O)cc2)[C@H](C)CN([C@@H](C)CO)C(=O)c2cc(NC(=O)C3CCCCC3)ccc2O1` the value was 3.06%.
